The numbers were not newly measured in patent US20210145842A1, “NEW THERAPEUTIC USES” (NOVARTIS AG, priority 2018, published 2021), which cites them from elsewhere.

The test system of this data set is patients with advanced NSCLC with EGFR activating mutations. To be noted: IPASS; cited from earlier work.

Take `COc1cc2ncnc(Nc3ccc(F)c(Cl)c3)c2cc1OCCCN1CCOCC1` [gefitinib]: the ORR is 71.2% and the PFS is on record as 9.5 months.
